According to patent US20260382616A1, “TREATMENT METHODS FOR SUBJECTS WITH NON-SMALL CELL LUNG CANCER HAVING AN ABERRATION IN EGFR” (published 2026):

Assay: Phase 1/2a study, safety
[1] = 100 mg BID (N=39), regardless of grade

Question: Which DLTs (30 mg dose level) does the source give for `C=CC(=O)N[C@H]1C=C(C)c2c(-c3cnc4ccccc4c3)c3c(N)ncnc3n2C1` here?
Answer: The DLTs was 0/8.

Question: And the DLTs (45 mg dose level)?
Answer: Its DLTs is 0/1.

Question: And the Treatment-related discontinuations (65 mg)?
Answer: The Treatment-related discontinuations was “two”.

Question: What about the Dose reductions (65 mg BID) of the same molecule?
Answer: The Dose reductions was 2/13.

Question: And the Pneumonitis possibly related (65 mg BID)?
Answer: The Pneumonitis possibly related was “one”.

Question: What about the DLTs (65 mg dose level) of the same molecule?
Answer: The DLTs was 1/14.

Question: And the “Pneumonitis, grade” value (65 mg patient, previously had pneumonitis on osimertinib)?
Answer: Its value is “grade 2”.

Question: And the Treatment-related discontinuations (100 mg)?
Answer: Its Treatment-related discontinuations is “two”.

Question: And the Dose reductions (100 mg BID)?
Answer: Its Dose reductions is 5/39.

Question: What about the “Grade 3 or 4 ALT/AST increase” value (100 mg BID) of the same molecule?
Answer: Its value is “two”.

Question: What about the Pneumonitis possibly related (100 mg BID) of the same molecule?
Answer: Its Pneumonitis possibly related is “two”.

Question: What about the “TEAE ≥Grade 3 ALT increased” value (100 mg BID (N=39)) of the same molecule?
Answer: The value was 1 (2.6) No (%).

Question: What about the “TEAE ≥Grade 3 AST increased” value (100 mg BID (N=39)) of the same molecule?
Answer: The value was 1 (2.6) No (%).

Question: What about the “TEAE ≥Grade 3 anemia” value (100 mg BID (N=39)) of the same molecule?
Answer: The value was 1 (2.6) No (%).

Question: What about the “TEAE ≥Grade 3 diarrhea” value (100 mg BID (N=39)) of the same molecule?
Answer: The value was 0 No (%).

Question: What about the “TEAE ≥Grade 3 disease progression” value (100 mg BID (N=39)) of the same molecule?
Answer: Its value is 1 (2.6) No (%).

Question: What about the “TEAE ≥Grade 3 dyspnea” value (100 mg BID (N=39)) of the same molecule?
Answer: Its value is 3 (7.7) No (%).

Question: What about the “TEAE ≥Grade 3 pneumonia” value (100 mg BID (N=39)) of the same molecule?
Answer: The value was 3 (7.7) No (%).

Question: And the “TRAE AST increased, number” value (100 mg BID (N=39), all grade)?
Answer: The value was 3.

Question: What about the “TRAE AST increased, percent” value (100 mg BID (N=39), all grade) of the same molecule?
Answer: Its value is “(8) %”.

Question: What about the “TRAE alopecia, number” value (100 mg BID (N=39), all grade) of the same molecule?
Answer: Its value is 6.

Question: What about the “TRAE alopecia, percent” value (100 mg BID (N=39), all grade) of the same molecule?
Answer: Its value is “(15) %”.

Question: And the “TRAE anemia, number” value (100 mg BID (N=39), all grade)?
Answer: Its value is 5.

Question: What about the “TRAE anemia, percent” value (100 mg BID (N=39), all grade) of the same molecule?
Answer: Its value is “(13) %”.

Question: And the “TRAE decreased appetite, number” value (100 mg BID (N=39), all grade)?
Answer: The value was 4.

Question: And the “TRAE decreased appetite, percent” value (100 mg BID (N=39), all grade)?
Answer: The value was “(10) %”.

Question: What about the “TRAE diarrhea, number” value (100 mg BID (N=39), all grade) of the same molecule?
Answer: Its value is 14.

Question: And the “TRAE diarrhea, percent” value (100 mg BID (N=39), all grade)?
Answer: The value was “(36) %”.

Question: What about the “TRAE dry eye, number” value (100 mg BID (N=39), all grade) of the same molecule?
Answer: Its value is 7.

Question: What about the “TRAE dry eye, percent” value (100 mg BID (N=39), all grade) of the same molecule?
Answer: The value was “(18) %”.

Question: And the “TRAE dry skin, number” value (100 mg BID (N=39), all grade)?
Answer: The value was 7.

Question: And the “TRAE dry skin, percent” value (100 mg BID (N=39), all grade)?
Answer: Its value is “(18) %”.

Question: What about the “TRAE fatigue, number” value (100 mg BID (N=39), all grade) of the same molecule?
Answer: The value was 8.

Question: And the “TRAE fatigue, percent” value (100 mg BID (N=39), all grade)?
Answer: Its value is “(21) %”.

Question: What about the “TRAE nausea, number” value (100 mg BID (N=39), all grade) of the same molecule?
Answer: Its value is 4.

Question: And the “TRAE nausea, percent” value (100 mg BID (N=39), all grade)?
Answer: Its value is “(10) %”.

Question: What about the “TRAE paronychia, number” value (100 mg BID (N=39), all grade) of the same molecule?
Answer: The value was 12.

Question: What about the “TRAE paronychia, percent” value (100 mg BID (N=39), all grade) of the same molecule?
Answer: Its value is “(31) %”.

Question: And the “TRAE rash, number” value (100 mg BID (N=39), all grade)?
Answer: The value was 32.

Question: And the “TRAE rash, percent” value (100 mg BID (N=39), all grade)?
Answer: The value was “(82) %”.

Question: And the “TRAE stomatitis, number” value (100 mg BID (N=39), all grade)?
Answer: Its value is 5.

Question: And the “TRAE stomatitis, percent” value (100 mg BID (N=39), all grade)?
Answer: The value was “(13) %”.

Question: What about the “TRAE AST increased, number” value (100 mg BID (N=39), grade ≥3) of the same molecule?
Answer: The value was 1.

Question: What about the “TRAE AST increased, percent” value (100 mg BID (N=39), grade ≥3) of the same molecule?
Answer: The value was “(2.6) %”.

Question: What about the “TRAE alopecia, number” value (100 mg BID (N=39), grade ≥3) of the same molecule?
Answer: The value was 0.

Question: What about the “TRAE anemia, number” value (100 mg BID (N=39), grade ≥3) of the same molecule?
Answer: Its value is 1.

Question: What about the “TRAE anemia, percent” value (100 mg BID (N=39), grade ≥3) of the same molecule?
Answer: Its value is “(2.6) %”.

Question: What about the “TRAE decreased appetite, number” value (100 mg BID (N=39), grade ≥3) of the same molecule?
Answer: Its value is 0.

Question: And the “TRAE diarrhea, number” value (100 mg BID (N=39), grade ≥3)?
Answer: Its value is 0.

Question: What about the “TRAE dry eye, number” value (100 mg BID (N=39), grade ≥3) of the same molecule?
Answer: Its value is 0.

Question: What about the “TRAE dry skin, number” value (100 mg BID (N=39), grade ≥3) of the same molecule?
Answer: The value was 0.

Question: What about the “TRAE fatigue, number” value (100 mg BID (N=39), grade ≥3) of the same molecule?
Answer: Its value is 0.

Question: And the “TRAE nausea, number” value (100 mg BID (N=39), grade ≥3)?
Answer: Its value is 0.

Question: What about the “TRAE paronychia, number” value (100 mg BID (N=39), grade ≥3) of the same molecule?
Answer: Its value is 0.

Question: And the “TRAE rash, number” value (100 mg BID (N=39), grade ≥3)?
Answer: Its value is 0.

Question: What about the “TRAE stomatitis, number” value (100 mg BID (N=39), grade ≥3) of the same molecule?
Answer: Its value is 0.

Question: And the “TEAE ALT increased, number (percent)” value [1]?
Answer: The value was 4 (10.3).

Question: And the “TEAE AST increased, number (percent)” value [1]?
Answer: The value was 5 (12.8).

Question: And the “TEAE alopecia, number (percent)” value [1]?
Answer: Its value is 9 (23.1).

Question: What about the “TEAE anemia, number (percent)” value [1] of the same molecule?
Answer: Its value is 8 (20.5).

Question: What about the “TEAE arthralgia, number (percent)” value [1] of the same molecule?
Answer: Its value is 5 (12.8).

Question: What about the “TEAE constipation, number (percent)” value [1] of the same molecule?
Answer: The value was 9 (23.1).

Question: And the “TEAE cough, number (percent)” value [1]?
Answer: The value was 10 (25.6).

Question: What about the “TEAE decreased appetite, number (percent)” value [1] of the same molecule?
Answer: Its value is 11 (28.2).

Question: And the “TEAE diarrhea, number (percent)” value [1]?
Answer: Its value is 18 (46.2).

Question: What about the “TEAE dizziness, number (percent)” value [1] of the same molecule?
Answer: The value was 6 (15.4).

Question: What about the “TEAE dry eye, number (percent)” value [1] of the same molecule?
Answer: The value was 7 (17.9).

Question: What about the “TEAE dry skin, number (percent)” value [1] of the same molecule?
Answer: The value was 8 (20.5).

Question: And the “TEAE dyspnea, number (percent)” value [1]?
Answer: Its value is 13 (33.3).

Question: And the “TEAE edema peripheral, number (percent)” value [1]?
Answer: Its value is 4 (10.3).

Question: What about the “TEAE fatigue, number (percent)” value [1] of the same molecule?
Answer: Its value is 15 (38.5).

Question: And the “TEAE headache, number (percent)” value [1]?
Answer: Its value is 7 (17.9).

Question: What about the “TEAE insomnia, number (percent)” value [1] of the same molecule?
Answer: The value was 5 (12.8).

Question: And the “TEAE nausea, number (percent)” value [1]?
Answer: Its value is 10 (25.6).

Question: What about the “TEAE paronychia, number (percent)” value [1] of the same molecule?
Answer: The value was 13 (33.3).

Question: What about the “TEAE pyrexia, number (percent)” value [1] of the same molecule?
Answer: Its value is 7 (17.9).

Question: What about the “TEAE rash, number (percent)” value [1] of the same molecule?
Answer: The value was 33 (84.6).

Question: What about the “TEAE stomatitis, number (percent)” value [1] of the same molecule?
Answer: The value was 5 (12.8).

Question: What about the “TEAE vomiting, number (percent)” value [1] of the same molecule?
Answer: The value was 9 (23.1).

Question: What about the “Grade ≥3 diarrhea or rash” value (100 mg BID or lower) of the same molecule?
Answer: The value was “No patients”.
